Broadly, the half-life is the time needed for the level to fall by half in the phase considered. Low values mean rapid decline, high ones slow decline.

Protein sequences, listed by entry. Tags and fused reporters are not part of them. Residues count along the entry.
UniProt P06756, 891-1048 partner limits assumed: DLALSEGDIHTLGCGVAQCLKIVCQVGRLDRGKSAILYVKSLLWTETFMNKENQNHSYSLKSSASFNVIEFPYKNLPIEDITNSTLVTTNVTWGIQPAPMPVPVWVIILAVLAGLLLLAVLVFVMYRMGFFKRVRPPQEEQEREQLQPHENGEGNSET
UniProt P06756, 31-889 limits assumed: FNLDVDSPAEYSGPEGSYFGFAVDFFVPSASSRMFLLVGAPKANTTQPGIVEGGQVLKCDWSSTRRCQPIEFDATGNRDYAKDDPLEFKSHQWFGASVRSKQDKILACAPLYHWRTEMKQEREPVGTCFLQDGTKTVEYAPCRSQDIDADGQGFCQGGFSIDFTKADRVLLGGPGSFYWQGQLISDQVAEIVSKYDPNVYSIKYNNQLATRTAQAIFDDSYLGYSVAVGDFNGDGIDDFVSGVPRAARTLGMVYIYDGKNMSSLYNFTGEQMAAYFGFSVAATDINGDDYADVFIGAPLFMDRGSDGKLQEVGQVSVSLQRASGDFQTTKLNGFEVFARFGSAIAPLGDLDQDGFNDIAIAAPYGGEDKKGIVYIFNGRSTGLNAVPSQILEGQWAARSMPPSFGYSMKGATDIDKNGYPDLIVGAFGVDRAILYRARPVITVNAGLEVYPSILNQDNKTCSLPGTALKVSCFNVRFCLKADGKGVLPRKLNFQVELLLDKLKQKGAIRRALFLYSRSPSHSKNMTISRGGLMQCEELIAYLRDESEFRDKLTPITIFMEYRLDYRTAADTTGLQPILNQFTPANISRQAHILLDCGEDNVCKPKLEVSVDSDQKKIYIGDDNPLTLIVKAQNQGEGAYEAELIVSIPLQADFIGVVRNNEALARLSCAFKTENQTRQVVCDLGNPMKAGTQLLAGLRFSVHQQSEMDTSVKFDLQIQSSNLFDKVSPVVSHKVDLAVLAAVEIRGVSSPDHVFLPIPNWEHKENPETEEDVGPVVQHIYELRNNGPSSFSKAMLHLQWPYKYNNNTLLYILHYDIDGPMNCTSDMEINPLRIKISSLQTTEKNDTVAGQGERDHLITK
UniProt P18564, 22-788 limits assumed: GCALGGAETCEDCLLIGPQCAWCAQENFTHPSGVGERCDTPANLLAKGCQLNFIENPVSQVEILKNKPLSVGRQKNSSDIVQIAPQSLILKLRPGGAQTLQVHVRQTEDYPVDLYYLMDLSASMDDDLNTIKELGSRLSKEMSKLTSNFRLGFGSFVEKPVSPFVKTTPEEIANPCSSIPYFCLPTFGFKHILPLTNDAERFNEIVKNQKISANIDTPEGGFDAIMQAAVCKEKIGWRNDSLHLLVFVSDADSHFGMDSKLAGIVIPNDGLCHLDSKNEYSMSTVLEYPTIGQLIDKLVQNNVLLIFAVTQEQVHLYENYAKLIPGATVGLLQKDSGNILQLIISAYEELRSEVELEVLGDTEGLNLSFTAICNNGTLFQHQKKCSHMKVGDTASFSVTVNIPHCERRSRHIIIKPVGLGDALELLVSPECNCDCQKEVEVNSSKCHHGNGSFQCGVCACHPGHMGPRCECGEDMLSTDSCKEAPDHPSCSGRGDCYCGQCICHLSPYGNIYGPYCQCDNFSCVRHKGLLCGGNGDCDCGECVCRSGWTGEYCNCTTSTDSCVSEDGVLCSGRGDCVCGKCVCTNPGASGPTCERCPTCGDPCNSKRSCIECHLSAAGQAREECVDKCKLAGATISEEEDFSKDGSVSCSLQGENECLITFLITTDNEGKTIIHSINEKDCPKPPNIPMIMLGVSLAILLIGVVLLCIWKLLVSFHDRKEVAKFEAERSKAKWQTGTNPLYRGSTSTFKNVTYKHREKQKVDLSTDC

Where two headings read alike, the source gives them in different places.

The source of these data is US20240209034A1 (priority 2021, published 2024).

The target of data set [1] is integrin αvβ6 (K562 αvβ6:mCherry cells) (Homo sapiens, UniProt P06756+P18564). The note with it: read-out: apparent binding affinity (KD).
The conditions of data set [2]: mouse, 24 h.
The conditions of data set [3]: mouse, in vivo.

As for `CC(C)C[C@@H]1NC(=O)[C@H](CC(=O)O)NC(=O)CNC(=O)[C@H](CCCNC(=N)N)NC(=O)[C@H](CC(C)C)NC(=O)[C@H](CC(N)=O)NC(=O)[C@@H]2CCCN2C(=O)[C@H](C(C)C)NC(=O)[C@@H](NC(=O)[C@H](CC(N)=O)NC(=O)CCCC[C@@H]2SC[C@@H]3NC(=O)N[C@@H]32)CSc2c(F)c(F)c(c(F)c2F)-c2c(F)c(F)c(c(F)c2F)SC[C@@H](C(=O)N[C@@H](CCCNC(=N)N)C(=O)N[C@H](C(=O)N[C@@H](CCCCN)C(N)=O)[C@@H](C)O)NC(=O)[C@H](C(C)C)NC(=O)[C@H](CCCCN)NC(=O)[C@H](CCC(N)=O)NC(=O)[C@H](C)NC(=O)[C@H](CC(C)C)NC(=O)[C@H](C(C)C)NC(=O)[C@H](CCC(N)=O)NC1=O` [C2C18 DFBP], the Kd in data set [1] was 70.8 ± 20.3 nM. Consider `CC(C)C[C@@H]1NC(=O)[C@H](CC(=O)O)NC(=O)CNC(=O)[C@H](CCCNC(=N)N)NC(=O)[C@H](CC(C)C)NC(=O)[C@H](CC(N)=O)NC(=O)[C@@H]2CCCN2C(=O)[C@H](C(C)C)NC(=O)[C@@H](NC(=O)[C@H](CC(N)=O)NC(=O)CCCC[C@@H]2SC[C@@H]3NC(=O)N[C@@H]32)CSc2c(F)c(F)c(c(F)c2F)-c2c(F)c(F)c(c(F)c2F)SC[C@@H](C(=O)N[C@@H](CCCNC(N)=O)C(=O)N[C@H](C(=O)N[C@@H](CCCCN)C(=O)N[C@H](C)C(N)=O)[C@@H](C)O)NC(=O)[C@H](C(C)C)NC(=O)[C@H](CCCCN)NC(=O)[C@H](CCC(N)=O)NC(=O)[C@H](C)NC(=O)[C@H](CC(C)C)NC(=O)[C@H](C(C)C)NC(=O)[C@H](CCC(N)=O)NC1=O` [C2C18 CitTKAD DFBP], for which the Kd in data set [1] was 75.8 ± 24 nM. Further, the “remaining fully intact peptide in serum” value in data set [2] worked out at 10.4%. With `CC(C)C[C@@H]1NC(=O)[C@H](CC(=O)O)NC(=O)CNC(=O)[C@H](CCCNC(=N)N)NC(=O)[C@H](CC(C)C)NC(=O)[C@H](CC(N)=O)NC(=O)[C@@H]2CCCN2C(=O)[C@H](C(C)C)NC(=O)[C@@H](NC(=O)[C@H](CC(N)=O)NC(=O)CCCC[C@@H]2SC[C@@H]3NC(=O)N[C@@H]32)CSc2c(F)c(F)c(c(F)c2F)-c2c(F)c(F)c(c(F)c2F)SC[C@@H](C(=O)N[C@H](CCCNC(=N)N)C(=O)N[C@H](C(=O)N[C@@H](CCCCN)C(=O)N[C@H](C)C(N)=O)[C@@H](C)O)NC(=O)[C@H](C(C)C)NC(=O)[C@H](CCCCN)NC(=O)[C@H](CCC(N)=O)NC(=O)[C@H](C)NC(=O)[C@H](CC(C)C)NC(=O)[C@H](C(C)C)NC(=O)[C@H](CCC(N)=O)NC1=O` [C2C18 RDTKAD DFBP], in data set [1], the Kd stood at 55.3 ± 6.06 nM. Same read-out and setting: as for `CC(C)C[C@@H]1NC(=O)[C@H](CC(=O)O)NC(=O)CNC(=O)[C@H](CCCNC(=N)N)NC(=O)[C@H](CC(C)C)NC(=O)[C@H](CC(N)=O)NC(=O)[C@@H]2CCCN2C(=O)[C@H](C(C)C)NC(=O)[C@H](C)NC(=O)[C@@H](NC(=O)CCCC[C@@H]2SC[C@@H]3NC(=O)N[C@@H]32)CSc2c(F)c(F)c(c(F)c2F)-c2c(F)c(F)c(c(F)c2F)SC[C@@H](C(=O)N[C@@H](CCCNC(=N)N)C(=O)N[C@H](C(=O)N[C@@H](CCCCN)C(N)=O)[C@@H](C)O)NC(=O)[C@H](C(C)C)NC(=O)[C@H](CCCCN)NC(=O)[C@H](CCC(N)=O)NC(=O)[C@H](C)NC(=O)[C@H](CC(C)C)NC(=O)[C@H](C(C)C)NC(=O)[C@H](CCC(N)=O)NC1=O` [C1C18 DFBP], the figure is 85.3 ± 18.6 nM. On to `CC(=O)N[C@@H](CC(N)=O)C(=O)N[C@H]1CSc2c(F)c(F)c(c(F)c2F)-c2c(F)c(F)c(c(F)c2F)SC[C@@H](C(=O)N[C@H](CCCNC(=N)N)C(=O)N[C@H](C(=O)N[C@H](CCCCNC(=O)CCCCC[N+]2=C(/C=C/C=C/C=C3/N(C)c4ccccc4C3(C)C)C(C)(C)c3ccccc32)C(N)=O)[C@@H](C)O)NC(=O)[C@H](C(C)C)NC(=O)[C@H](CCCCN)NC(=O)[C@H](CCC(N)=O)NC(=O)[C@@H](C)NC(=O)[C@H](CC(C)C)NC(=O)[C@H](C(C)C)NC(=O)[C@H](CCC(N)=O)NC(=O)[C@H](CC(C)C)NC(=O)[C@H](CC(=O)O)NC(=O)CNC(=O)[C@H](CCCNC(=N)N)NC(=O)[C@H](CC(C)C)NC(=O)[C@H](CC(N)=O)NC(=O)[C@@H]2C[C@@H](O)CN2C(=O)[C@H](C(C)C)NC1=O` [Cy5-labeled C2C18 PhADRDTKD DFBP], for which the figures for the half-life in data set [3] (distribution half-life) and in data set [3] (elimination half-life) were approximately 2 min and approximately 50 min, respectively.
